These are literature values, as cited in paper PMC9785542, “Discovery of 1-Benzhydryl-Piperazine-Based HDAC Inhibitors with Anti-Breast Cancer Activity: Synthesis, Molecular Modeling, In Vitro and In Vivo Biological Evaluation” (Pharmaceutics, 2022).

Protein sequences, listed by entry. Tags and fused reporters are not part of them. Lines headed by an entry give the natural chain unless they say otherwise; changes in a name come on top.
UniProt O15379: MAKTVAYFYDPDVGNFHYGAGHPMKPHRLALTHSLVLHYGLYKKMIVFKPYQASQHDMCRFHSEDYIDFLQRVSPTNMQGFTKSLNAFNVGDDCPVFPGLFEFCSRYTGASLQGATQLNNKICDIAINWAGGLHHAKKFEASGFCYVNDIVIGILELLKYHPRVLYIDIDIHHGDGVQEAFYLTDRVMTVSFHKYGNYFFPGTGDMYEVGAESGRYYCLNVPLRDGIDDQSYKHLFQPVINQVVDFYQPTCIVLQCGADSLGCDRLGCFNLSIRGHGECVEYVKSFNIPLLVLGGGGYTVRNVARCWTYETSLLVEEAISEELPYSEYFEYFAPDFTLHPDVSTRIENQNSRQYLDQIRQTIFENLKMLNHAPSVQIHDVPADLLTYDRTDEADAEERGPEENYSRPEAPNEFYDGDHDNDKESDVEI

What is called IC50 is the concentration that gives 50% inhibition.

The target in the series is Human recombinant HDAC-3/NcoR2 (Homo sapiens, UniProt O15379). Particulars: read-out: HDAC Inhibition, IC50, HDAC3; cited from earlier work.

For `CCCC(CCC)C(=O)O` [Valproic acid], the IC50 was above 1000 µM.
